This note sets out measurements from patent US7829066B2, “Assay for anti-metastatic agents” (Memorial Sloan-Kettering Cancer Center, priority 2006, dated 2010).

The test system of one experiment is lung metastasis. As to the kind of experiment: Inhibition of lung metastasis by a single agent (preliminary results). As to conditions: as a single agent. Type of experiment: in vivo. Here is the method:
Putative agents are tested for their ability to inhibit a metastatic cell, using an assay of the invention. In one assay, using methods as described elsewhere herein, detectably labeled metastatic cells are inoculated into immunodeficient mice bearing tumors, and the mice are then treated with agents that belong to the Epiregulin class of growth factors (also known as EREG, a ligand of the EGFR/HER receptor family). Among the agents tested are agents that target the EGF receptor (including Erbitux, Iressa and Tarceva) and agents that target HER2 (e.g., Herceptin). It is expected that these agents will inhibit the seeding of the metastatic cells in the assay to a similar degree to which they inhibit metastasis. […] Other agents that are tested include combinations of HER1/EGFR and/or HER2 inhibitors with Celecoxib (Pfizer), which is a cyclooxygenase synthase-2 (COX-2) inhibitor. […] The action of the agents or combinations of agents in the seeding assay of the invention is expected to mirror the antimetastatic properties of the agents or combinations of agents.

Experiment [1] concerns detectably labeled metastatic cells. As to the kind of experiment: Seeding assay of the invention: seeding of tumors by detectably labeled metastatic cells in tumor-bearing immunodeficient mice. It is filed as in vivo. As to conditions: single agent; result stated as similar to the lung metastasis result (Erbitux but not Herceptin inhibits). The source says:
Mammary tumor colonization assays. Both the parental MDA-MB-231 population and its metastatic derivative LM2 cells were infected with retrovirus expressing either a thymidine kinase-GFP-firefly luciferase (TGL) or a thymidine kinase-RFP-renilla luciferase (TRL) fusion protein^27. Infected cells were sorted by FACS. To assess mammary tumor seeding from circulation, 1×10^6 RFP expressing parental cells were first implanted into mammary gland #2 of immunodeficient mice as previously described^12. Once these RFP expressing tumors became palpable (100 mm^3), 1×10^5 GFP-luciferase expressing LM2 or parental cells were injected into the left ventricle of tumor-bearing animals. Colonization of mammary tumors was determined by luciferase bioluminescence measurements. Animals were sacrificed after 36 days, tumors removed, fixed in 4% paraformaldehyde, and frozen in OCT. Confirmation of mammary tumor seeding was achieved by visualizing tumor sections with a Zeiss Axiovert 200M microscope, as well as a Leica TCS SP2 AOBS inverted confocal microscope.
Putative agents are tested for their ability to inhibit a metastatic cell, using an assay of the invention. […]

Regarding “Erbitux: agent that targets the EGF receptor”, in the experiment with lung metastasis, the “inhibition of lung metastasis” value is reported as “inhibits lung metastasis”. In addition, the “inhibition of seeding of the metastatic cells” value in experiment [1] was “a similar result is found”.
Taken in the same sequence, the figures for Herceptin: agent that targets HER2 were “not Herceptin inhibits lung metastasis” and “a similar result is found”.
